Drawing on patent US9233185B2, “Absorbent article” (UNICHARM CORPORATION, priority 2012, dated 2016), this text covers Water solubility for 3 substances.

Read-outs that look alike come from different tables or passages of the source.

This data set is described as follows: Water solubility in 100 g of water at 25° C., visual evaluation after 24 hours. From the text:
The term “solubility” used herein in regard to water solubility includes cases where the sample completely dissolves in deionized water to form a homogeneous mixture, and cases where the sample is completely emulsified. Here, “completely” means that no mass of the sample remains in the deionized water.

The mark [1] stands for this setting: in 100 g of water at 25° C., after 24 hours.

“Octadecanoic acid (C18) monoester of butylene glycol [COMPOL BS]”: the Water solubility under setting [1] is listed as less than 0.05 g.

As for “Dodecanoic acid (C12) monoester of butylene glycol [COMPOL BL]”, the Water solubility under setting [1] was less than 0.05 g.

As for Isopropyl citrate, the Water solubility is listed as 20< g.
